Earlier results as cited in patent publication US6444811B1, “Pyrazinones, compositions containing such compounds and methods of use” (Merck Frosst Canada & Co., priority 1999, dated 2002).

Columns and labels:
[1] = biological target: T1, caspase-1 (Homo sapiens, UniProt P29466)
T1 sequence (P29466 120-297 limits assumed): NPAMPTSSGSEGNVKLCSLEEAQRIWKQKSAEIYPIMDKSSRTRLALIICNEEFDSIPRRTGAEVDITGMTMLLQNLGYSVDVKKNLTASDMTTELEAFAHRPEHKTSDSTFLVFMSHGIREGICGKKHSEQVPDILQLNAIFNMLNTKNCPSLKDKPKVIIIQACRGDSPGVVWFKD
T1 sequence (P29466 317-404 limits assumed): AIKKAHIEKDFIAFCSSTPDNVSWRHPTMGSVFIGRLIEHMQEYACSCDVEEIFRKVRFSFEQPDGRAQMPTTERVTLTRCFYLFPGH

[2] = biological target: T2, caspase-3 (Homo sapiens, UniProt P42574)
T2 sequence (P42574 29-175 limits assumed): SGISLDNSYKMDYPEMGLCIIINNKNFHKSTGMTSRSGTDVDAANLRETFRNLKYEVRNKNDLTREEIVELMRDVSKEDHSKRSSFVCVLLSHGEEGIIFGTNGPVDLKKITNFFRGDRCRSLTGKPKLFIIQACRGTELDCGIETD
T2 sequence (P42574 176-277 limits assumed): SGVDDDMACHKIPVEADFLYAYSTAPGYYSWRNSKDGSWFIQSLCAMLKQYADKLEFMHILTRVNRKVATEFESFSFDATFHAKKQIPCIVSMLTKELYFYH

Ki [2]: < 1 nM | kon caspase-3 ([2]; slow-binding time-dependent inhibition): 130000 M⁻¹ s⁻¹
Substance: Ac-DEVD-CHO
inhibition of caspase-1 (in words) [1]: weaker but reasonable inhibitor of caspase-1
